Earlier results on 1 substance are cited in US20260256729A1, “CARBAMOYL PHEN[…] AS TAAR1 AGONISTS” (AXSOME THERAPEUTICS, INC., priority 2022, published 2026).

By UniProt entry, the sequences of proteins in these tests, tags left out.
UniProt Q01959, whole entry: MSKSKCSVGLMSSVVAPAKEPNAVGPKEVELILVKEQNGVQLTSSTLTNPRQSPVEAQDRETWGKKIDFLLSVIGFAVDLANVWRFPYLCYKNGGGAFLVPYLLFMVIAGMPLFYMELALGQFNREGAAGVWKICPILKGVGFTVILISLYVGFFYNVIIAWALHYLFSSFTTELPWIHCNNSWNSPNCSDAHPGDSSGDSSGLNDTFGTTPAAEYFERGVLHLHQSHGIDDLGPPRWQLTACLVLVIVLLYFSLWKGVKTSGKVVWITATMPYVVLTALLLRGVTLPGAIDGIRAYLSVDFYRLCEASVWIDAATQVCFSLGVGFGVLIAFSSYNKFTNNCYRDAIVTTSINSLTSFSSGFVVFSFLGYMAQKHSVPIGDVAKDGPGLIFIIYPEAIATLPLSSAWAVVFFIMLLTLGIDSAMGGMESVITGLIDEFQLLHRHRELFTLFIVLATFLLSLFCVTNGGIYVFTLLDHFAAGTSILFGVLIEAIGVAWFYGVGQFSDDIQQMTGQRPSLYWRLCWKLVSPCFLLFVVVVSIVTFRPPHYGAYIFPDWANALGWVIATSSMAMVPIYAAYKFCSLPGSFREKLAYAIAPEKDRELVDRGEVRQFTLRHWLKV

The data set concerns the target human dopamine transporter (hDAT) (Homo sapiens, UniProt Q01959). More on the design: host or cells: unnamed cell lines or membrane preparations. As to conditions: data from published literature (footnote b); cited from earlier work.

By IC50 is commonly meant the concentration that inhibits the measured activity by half. (+)Methamphetamine: the IC50 is 82 nM.
